Yeast mating assay 1: variants of the scFv Ab-14

All variants were tested on one target, the spike HR2 peptide PDVDLGDISGINAS (SARS-CoV-2).

Each scFv is VH, a 15-residue (Gly4Ser)3 linker, VL, as in the parent Ab-14, and differs from it in the CDRs of the light chain only.
VH: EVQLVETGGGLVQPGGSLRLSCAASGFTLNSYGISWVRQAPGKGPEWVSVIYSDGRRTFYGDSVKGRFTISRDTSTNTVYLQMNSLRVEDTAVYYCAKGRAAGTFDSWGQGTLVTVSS
VL: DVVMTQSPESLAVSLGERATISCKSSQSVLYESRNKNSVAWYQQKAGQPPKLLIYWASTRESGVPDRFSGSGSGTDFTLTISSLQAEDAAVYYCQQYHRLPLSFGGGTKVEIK

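The parent was found by panning a naive human phage display library on the peptide. AAYL50 was designed without a model: most single CDR substitutions and a random sample of double and triple ones. AlphaSeq pools MATa yeast showing the antibodies with MATalpha yeast showing the peptide. Mating (16 h, 30 °C) was followed by selection of diploids and sequencing of their barcodes. A regression on co-assayed BCL2-family reference pairs converts the normalised counts of each replicate to an apparent Kd. Mating was done three times.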

Each variant is given by its three light chain CDRs, as the data file delimits them; those of the parent are KSSQSVLYESRNKNSVA, WASTRES, QQYHRLPLS.
The Kd shown is the geometric mean over detected replicates; a lower Kd is a better binder.
"not detected" marks a missing value. The strain was present, yet no cells mated with the target were sequenced in any replicate, which points to weak or no binding.
Nonspecific signal, from three strains lacking the peptide, appeared in 18% of pairings of library AAYL50, centred on 15 µM (5% of these signals below 970 nM); values are not corrected for it.
Parent in this assay: reference entry 4.4 nM, copy in this library 48 nM.

CDR-L1 | CDR-L2 | CDR-L3 | apparent Kd | seen in
KSSQIVLYESRNKNSSA | WASTRES | QQYHRLPLS | 950 nM | 3/3
KSSQSVLYPSRNKNSVA | WASTRES | QQYHHLPLI | not detected | 0/3
PSSQSVLYMSRNKNSVA | WASTRES | QQYHRLPYS | not detected | 0/3
KSVQSVLYESRNCNSVA | WASTRES | QQYHRLPLS | 3.5 µM | 3/3
KSNQSVLYESRNKNSIA | WASTRES | QQYHRDPLS | 1.3 nM | 3/3
KSSQSVLYESRNNNSVA | WASERES | QQYHRLDLS | 45 µM | 2/3
KSSQSVLYESWNKNSVA | WASDSES | QQYHRLPLS | 1.9 µM | 1/3
KSGQSVLYRSRNKNSYA | WASTRES | QQYHRLPLS | not detected | 0/3
KSSQSVLYESRNKCSVA | WASTRES | QEYHRLQLS | 660 nM | 1/3
KSSESVLYESRNKNSVA | WASTRES | QQYHRLPLN | 27 nM | 3/3
KSSQSVLKESRNKNSPA | WASTRES | QQFHRLPLS | 14 µM | 3/3
KSSQSVWYESRNKMSVA | WASTRAS | QQYHRLPLS | not detected | 0/3
IRSQSVLYESRNKNSVA | WASTHES | QQYHRLPLS | 610 nM | 1/3
KSVQSVLYESRNKNSVA | MASTRES | QQTHRLPLS | 42 nM | 3/3
KWSQKVLYESRNKNSVA | WASTRES | QQYHRLRLS | 180 nM | 3/3
KSSSSVLYESRNKNSVA | WASTRES | PQYHRLPRS | not detected | 0/3
KSSQSVLYESMNKNSVA | WASTREG | QQYHRDPLS | 430 µM | 1/3
KSSQSVLYESRNKNSVA | WCYTRES | QQYHRLPLF | not detected | 0/3
KSSQSVLYESDNKNSVA | WASTRES | QQYHRLYTS | 12 µM | 1/3
KSEQSQLYESRNKNSVA | WASTRES | QQYHRLPLM | 6.2 nM | 3/3
KSSQSVLYESRNKNSVA | WASTREL | QQFHRLPNS | 8.1 nM | 3/3
KSSQSVLYESRNKNSVA | WAHTRES | LAYHRLPLS | 1.1 µM | 1/3
PSSQWVLPESRNKNSVA | WASTRES | QQYHRLPLS | 570 nM | 3/3
KSSQSVLYEWRKKNSVA | WASTRES | QQYHRLPLS | not detected | 0/3
KSSQTVLTESRNKNSVA | WASTRES | QQVHRLPLS | 160 µM | 1/3
KPSQSVFYESRNKNSVA | WASTRES | QQYHRDPLS | not detected | 0/3
KSVQSVLYESRNKNEVA | WASWRES | QQYHRLPLS | 24 µM | 2/3
KSSQSVRYESRNKNSVA | WASTRTS | QQYHRYPLS | 200 nM | 3/3
KSVQSVLYESRNKNSVA | WQSTRES | LQYHRLPLS | not detected | 0/3
KSSQSVLYESCNKNSVA | WRSTRES | QQYHRLPLS | 2.4 µM | 1/3
KSSQSHLYESINKNSVA | WASTRES | QQYHWLPLS | 200 nM | 2/3
KSSQSVLYESRNSNSVA | CLSTRES | QQYHRLPLS | 1.3 µM | 3/3
KSSQSVLYEIRNYNSVA | WASTRWS | QQYHRLPLS | 31 µM | 3/3
ESSQSVLYESANKNSVA | WASTRES | QQYHRLPLG | 260 nM | 3/3
KSSQSALYESRNKNSVA | WASTRAS | QQYHRLPLS | 33 nM | 3/3
KSSQSNLYESRNKNSVA | WASTRES | QHYSRLPLS | 6.0 nM | 3/3
KSAQSVLYESRNKNSVA | WASTRES | QQVHRLPLS | not detected | 0/3
KSSQSVSYESRNKNSVA | AASTRES | QQYHRLELS | 2.8 µM | 1/3
KSSQSVLYESRNKMSVA | WASTRES | QQYHRLPCS | not detected | 0/3
KSVKSVLYESRNKNSVA | WASTRES | QQYHRLPLF | 280 nM | 1/3
KSSQSVLYESRNLNSVA | WNSTRTS | QQYHRLPLS | 6.7 µM | 3/3
KSSQSVLYESRNTNSVA | WASTRES | MQYHRLPLS | not detected | 0/3
KASQSFLYESRNKNRVA | WASTRES | QQYHRLPLS | 11 µM | 1/3
KSSQSVLYIKRNKISVA | WASTRES | QQYHRLPLS | 4.3 nM | 3/3
KSSQTVLYESRKENSVA | WASTRES | QQYHRLPLS | 22 nM | 3/3
KSRQSVLYESRNKNSVA | WASTRES | QQYHILPNS | not detected | 0/3
CSSQSVLFESRNKNSVA | WASTRES | QQYHRLPLS | 140 nM | 3/3
KSSQSVLYESRNKNSVC | WASTRES | IQYPRLPLS | not detected | 0/3
KSQNSVLYESRNKNSVA | WASTRES | QQYHRLPLK | 130 nM | 3/3
KSSQSVLWESRNKNSVA | WASTRES | CQYDRLPLS | 5.7 µM | 2/3
KSSQSVLYESRNKNSVA | WAATQLS | QQYHRLPLS | not detected | 0/3
KSSQAVLYESRNKNSFA | WASTRES | QQYPRLPLS | 1.1 mM | 1/3
KSSQSVVYESRNKNSWA | WAPTRES | QQYHRLPLS | 19 µM | 1/3
KSCQSVLYKSRNKNSVA | WASTRES | QQYHQLPLS | 5.0 µM | 3/3
IYSQSVKYESRNKNSVA | WASTRES | QQYHRLPLS | 140 nM | 3/3
KSSCSVLIEERNKNSVA | WASTRES | QQYHRLPLS | 48 nM | 3/3
KSHQSVLYESRNKNHVA | WASTREM | QQYHRLPLS | 3.5 µM | 2/3
KSSQSVLYESRNVNSVA | WASTRES | QQYHRLPLR | 6.4 nM | 3/3
KSSHSVLYEGRNKNSVA | WASTREW | QQYHRLPLS | 13 nM | 3/3
KSSQSVLYESRNKNSVA | WASTRCS | QMYHRLPLS | 360 nM | 3/3
KSSQSVLYPSRNKNSVF | WASTRES | QQYHRLPLS | 180 µM | 1/3
KSSQSVLYESRNKNSVA | WESTRES | QMYHRLPQS | not detected | 0/3
KSGQSKLGESRNKNSVA | WASTRES | QQYHRLPLS | 7.2 nM | 3/3
KSSQSVLYESRNVNSVA | WASTRES | QQYIQLPLS | 98 nM | 3/3
KCSQSCLYESRNKNRVA | WASTRES | QQYHRLPLS | 84 nM | 3/3
KSSQSRLYESLNKYSVA | WASTRES | QQYHRLPLS | 11 nM | 3/3
KSSQSVLYESRGKRSGA | WASTRES | QQYHRLPLS | not detected | 0/3
KSSQSVLSESRNKNSVA | WASRRES | QQYHRLPLM | 16 nM | 3/3
KSSQSVLYEQRNKSSVW | WASTRES | QQYHRLPLS | not detected | 0/3
KSSQSTLYESRNKNSVA | WASLRES | QQHHRLPLS | 6.3 nM | 3/3
KSSQSVLYESRNKHSEA | WASTRES | QQYHVLPLS | 4.1 nM | 3/3
KNSQSVLYESRNKNVVA | WASTRLS | QQYHRLPLS | 3.2 µM | 1/3
KSSTSVLHESRNKNSVA | WASTRES | QQYHRMPLS | 20 nM | 3/3

The measurements come from Engelhart et al. 2022 (doi:10.1038/s41597-022-01779-4) through the FLAb antibody collection.